High-throughput results as filed in PubChem.
The list is not random: actives were taken first. Their share in the collection is about 1.2%.
miR-122 sensor = miR-122 Renilla sensor signal increase in Huh7, primary screen, miR-122 inhibitor project, cell-based, single point, plate reader. hit rate 0.3% among 340,000. Huh7 miR-122 Renilla luciferase sensor, 48 h; neutral wells = 0, positive control = 100. activation (reporter increase), % at 12.5 µM;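 active = mean replicate activation score at least 90 and every replicate individually at or above 90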;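 also: higher luciferase means less miR-122 activity so hits act as miR-122 inhibitors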
Yeast UUG start = alters start codon recognition fidelity in yeast | S. cerevisiae UUG-firefly luciferase reporter, luminescence/redox ratio | activity score, % at 18.7 µM | hit rate 0.13% among 350,000 | AID 602363;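 active means replicate mean at a twofold rise or more, about +100% in these data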;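 further: firefly luciferase made from a UUG start codon reports start codon fidelity; reporter light over untreated wells divided by growth signal over untreated wells; some hits fall short of that in this replicate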
Cneo AK release = Cryptococcus neoformans cell lysis inducers, primary screen, AK release luminescence, single concentration; C. neoformans lysis, adenylate kinase release luminescence, 4 h; normalised: neutral wells 0, clomiphene wells 100; lysis activity, % at 15 µM; hit rate 0.2% among 360,000;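 active = mean lysis activity across replicates of at least 80%, whatever share of replicates individually reach that level; inactive = mean lysis activity below 80%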
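read-out = cell lysis signal | test system = log-phase Cryptococcus neoformans yeast cells | input = cells at 5 × 10^6 per mL | medium = fresh YPD growth medium | signal = luminescent adenylate kinase detection reagent | timing = 4 h at 37 °C static, read 1 h later | dosing = single dose | controls = Clomiphene as positive lysis control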
C2C12 statin = suppressors of statin myotoxicity in C2C12 myotubes, primary screen, cell-based, single point, plate reader. C2C12 myotubes + simvastatin, ATP luminescence, 48 h; scaled: DMSO 0, geranylgeraniol control 100. rescue of ATP level, % at 7.49 µM. hit rate 0.78% among 330,000;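 active = mean ATP rescue above about 67%, or every replicate alone reaching that limit, limit read from the data, passing the limit was not always enough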;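 also: myotubes were challenged with 10 µM simvastatin during compound exposure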
Starred values were filed as active, the others as inactive; nt = not tested or not shown; [ ] = another dose, or the depositor's remark.

Letter code: A = miR-122 sensor; B = Yeast UUG start; C = Cneo AK release; D = C2C12 statin
smiles: CC=Cc1ccc2n(c1=O)C[C@H]1[C@H](CO)[C@@H](C(=O)NCc3ccc(F)cc3)N(CC)[C@@H]21 (mixture of isomers)
  A: 2[16.7 µM]	B: 11	C: 5	D: 9
smiles: COc1ccc(C)cc1S(=O)(=O)NCCC1=CCCCC1
  A: 93*	B: -5	C: 1	D: -36
smiles: O=S(=O)(NCCC1=CCCCC1)c1ccccc1Br
  A: 140*	B: -5	C: -7	D: -1
smiles: COc1ccc(C)cc1S(=O)(=O)N1CCC(C(=O)NCCC2=CCCCC2)CC1
  A: 9	B: 23	C: -1	D: -16
smiles: COc1ccc(NC(=O)Nc2ccc3c(c2)C(=O)N([C@@H](C)CO)C[C@@H](C)[C@@H](CN(C)CC2CCCCC2)OCCCC[C@@H](C)O3)cc1
  A: -20[16.7 µM]	B: 31	C: 2	D: -353
smiles: Cc1cccc(C)c1NS(=O)(=O)c1ccc(F)cc1
  A: -2	B: -12	C: -3	D: 115*
smiles: CCCNC(=O)N1C[C@H](C)[C@@H](OC)CN(C)C(=O)c2cc(NC(=O)C3CCC3)ccc2OC[C@@H]1C
  A: -7[16.7 µM]	B: nt	C: nt	D: -4
smiles: CCS(=O)(=O)c1ncc(Cl)c(C(=O)Nc2ccc(C)cc2)n1
  A: nt	B: -23	C: 1	D: 127*
smiles: CCOc1ccc(NC(=O)CN(c2ccc(OC)cc2)S(C)(=O)=O)cc1
  A: -6	B: -7	C: 8	D: 111*
smiles: Cc1ccc(S(=O)(=O)NCC[C@H]2CC[C@H](NS(=O)(=O)c3ccccc3Cl)[C@H](CO)O2)cc1
  A: nt	B: 9	C: -5	D: 3
smiles: Nc1ncnc2c1nc(N1CCCCC1)n2[C@@H]1O[C@H](CO)[C@@H](O)[C@H]1O
  A: -3	B: 13	C: 0	D: 101*
smiles: CCOC(=O)c1cnc2c(-c3ccc(Cl)cc3)c(C)nn2c1N
  A: 3	B: -17	C: 0	D: 87*
smiles: CCOC(=O)c1cnc2cc(-c3ccc(Cl)cc3)nn2c1N
  A: 7	B: -7	C: -3	D: -15
smiles: Cc1cccc(C(=O)NN(C)c2nc(-c3ccccc3)nnc2C(F)(F)F)c1
  A: -4	B: -16	C: -2	D: -15
smiles: COc1ccc(C(=O)NN(C)c2nc(-c3ccccc3)nnc2C(F)(F)F)cc1
  A: 21	B: -14	C: -2	D: 74*
smiles: CCOc1ccc(N2C(=O)CSC23CCCCC3)cc1
  A: 2	B: -1	C: 0	D: 96*
smiles: C[C@H]1CN([C@@H](C)CO)C(=O)c2cc(NC(=O)Nc3cccc4ccccc34)ccc2O[C@@H]1CN(C)C(=O)Nc1ccc(C(F)(F)F)cc1
  A: 12[16.7 µM]	B: 16	C: 90*	D: 29
smiles: C[C@@H]1CN([C@@H](C)CO)C(=O)c2cc(NC(=O)Nc3cccc4ccccc34)ccc2O[C@@H]1CN(C)C(=O)Nc1ccccc1
  A: 4[16.7 µM]	B: 14	C: 107*	D: 2
smiles: C[C@@H]1CN([C@@H](C)CO)C(=O)c2cc(NC(=O)Nc3cccc4ccccc34)ccc2O[C@@H]1CN(C)C(=O)Nc1ccc(C(F)(F)F)cc1
  A: -3[16.7 µM]	B: -13	C: -7	D: -10
smiles: C[C@H]1CN([C@@H](C)CO)C(=O)c2cccc(N(C)C)c2O[C@@H]1CN(C)C(=O)Nc1cccc2ccccc12
  A: -1[16.7 µM]	B: 8	C: 84*	D: -1
smiles: C[C@@H]1CN([C@@H](C)CO)C(=O)c2cc(NC(=O)Nc3ccccc3)ccc2O[C@@H]1CN(C)C(=O)Nc1cccc2ccccc12
  A: 17[16.7 µM]	B: 19	C: 108*	D: -41
smiles: CO[C@H]1CN(C)C(=O)c2ccc(NC(=O)c3cnccn3)cc2OC[C@H](C)NC[C@H]1C
  A: nt	B: nt	C: 2	D: 9
smiles: COc1ccc(NC(=O)N(C)C[C@@H]2Oc3ccc(NC(=O)CCC(F)(F)F)cc3C(=O)N([C@H](C)CO)C[C@@H]2C)cc1
  A: 4[16.7 µM]	B: nt	C: nt	D: -35
smiles: COc1ccc(NC(=O)COc2ccc(Br)cc2)c(OC)c1
  A: -4	B: -16	C: -2	D: 11
smiles: COc1ccc(OCC(=O)Nc2nc3ccccc3[nH]2)cc1
  A: -5	B: -27	C: -13	D: 74*
smiles: COc1ccc(NC(=O)COc2ccccc2)c(OC)c1
  A: -3	B: -24	C: 1	D: 98*
smiles: CCCNC(=O)C[C@@H]1CC[C@@H]2[C@@H](COc3ccc(NC(=O)c4cccc(F)c4)cc3C(=O)N2C)O1
  A: 5[16.7 µM]	B: -5	C: -3	D: 11
smiles: O=C(C[C@H]1C[C@H]2c3cc(NC(=O)Nc4ccc(C(F)(F)F)cc4)ccc3O[C@H]2[C@H](CO)O1)NCC1CC1
  A: 2[16.7 µM]	B: -11	C: 2	D: 9
smiles: CCOc1ccc(Br)cc1S(=O)(=O)Nc1ccc(Cl)c(S(=O)(=O)N(CC)c2ccccc2)c1
  A: 281*	B: -8	C: 1	D: nt
smiles: CCC(C)c1ccc(NC(=S)NCc2cccs2)cc1 (centres undefined)
  A: 174*	B: -35	C: -5	D: -9
smiles: COc1ccccc1NS(=O)(=O)c1cc(NC(=O)C(C)(C)C)ccc1N1CCOCC1
  A: 86	B: nt	C: nt	D: -10
smiles: COc1ccc(NS(=O)(=O)c2cc(NC(=O)c3sccc3C)ccc2N2CCOCC2)cc1
  A: 188*	B: -24	C: -6	D: 1
smiles: COc1ccccc1NS(=O)(=O)c1cc(NC(=O)c2sccc2C)ccc1N1CCOCC1
  A: 84	B: -15	C: 2	D: 7
smiles: COc1cc(S(=O)(=O)Nc2ccccc2N2CCCCC2)ccc1NC(C)=O
  A: 111*	B: -7	C: -1	D: -40
smiles: COc1ccccc1NS(=O)(=O)c1cc(NC(=O)c2sccc2C)ccc1N1CCCC1
  A: 173*	B: nt	C: nt	D: 14
smiles: COc1ccccc1NS(=O)(=O)c1cc(NC(=O)Nc2ccccc2)ccc1N1CCCCC1
  A: 289*	B: -2	C: -1	D: nt
smiles: O=C(NCC[C@@H]1CC[C@H](NC(=O)C2CCC2)[C@H](CO)O1)c1cc(Cl)cc(Cl)c1
  A: nt	B: 2	C: -1	D: 0
smiles: CN1CCN(C(=O)C[C@H]2C[C@@H]3c4cc(NC(=O)Nc5ccccc5F)ccc4O[C@@H]3[C@@H](CO)O2)CC1
  A: 4[16.7 µM]	B: 7	C: -2	D: 5
smiles: Cc1ccccc1OCC(=O)NNC(=O)Nc1ccc(Cl)cc1
  A: 144*	B: -5	C: -1	D: -34
smiles: Cc1cccc(C)c1OCC(=O)NNC(=O)Nc1ccc(Cl)cc1
  A: 3	B: -13	C: 1	D: 4

Entries of single compounds, quoted from the list. Screens in order: miR-122 sensor	Yeast UUG start	Cneo AK release	C2C12 statin
Shown for COc1ccc(NC(=O)Nc2ccc3c(c2)C(=O)N([C@@H](C)CO)C[C@@H](C)[C@@H](CN(C)CC2CCCCC2)OCCCC[C@@H](C)O3)cc1 : -20[16.7 µM]	31	2	-353
Shown for CCOC(=O)c1cnc2c(-c3ccc(Cl)cc3)c(C)nn2c1N : 3	-17	0	87*
Shown for C[C@@H]1CN([C@@H](C)CO)C(=O)c2cc(NC(=O)Nc3ccccc3)ccc2O[C@@H]1CN(C)C(=O)Nc1cccc2ccccc12 : 17[16.7 µM]	19	108*	-41
Shown for Cc1ccccc1OCC(=O)NNC(=O)Nc1ccc(Cl)cc1 : 144*	-5	-1	-34

Continuation.
Letter code: A = miR-122 sensor; B = Yeast UUG start; C = Cneo AK release; D = C2C12 statin
smiles: C[C@@H]1CN([C@H](C)CO)C(=O)c2cc(NS(=O)(=O)c3cccs3)ccc2O[C@@H]1CN(C)CC1CC1
  A: -2[16.7 µM]	B: -1	C: 5	D: 9
smiles: O=C(Cc1ccccc1)N1CC[C@@H]2[C@@H](CO)Nc3ccc(-c4cccc(F)c4)cc3[C@@H]21
  A: 109*[16.7 µM]	B: -5	C: -9	D: -5
smiles: N#Cc1ccc(-c2ccc3c(c2)[C@H]2[C@H](CCN2C(=O)Cc2ccccc2)[C@@H](CO)N3)cc1
  A: 23[16.7 µM]	B: 12	C: 95*	D: -28
smiles: N#Cc1ccc(-c2ccc3c(c2)[C@H]2[C@H](CCN2C(=O)Cc2ccccc2)[C@H](CO)N3)cc1
  A: -12[16.7 µM]	B: -11	C: 1	D: 19
smiles: N#Cc1ccc(-c2ccc3c(c2)[C@@H]2[C@@H](CCN2C(=O)Cc2ccccc2)[C@@H](CO)N3)cc1
  A: 14[16.7 µM]	B: 14	C: 89*	D: 33
smiles: CN(C)CCSc1nc(N)c2c3c(sc2n1)CN(C)CC3
  A: 0	B: 4	C: 2	D: 14
smiles: CCCSc1nc(N)c2c3c(sc2n1)CN(C)CC3
  A: -3	B: -20	C: 3	D: 99*
smiles: COCc1cc(C)nc(N2CCN(c3ccccc3)CC2)c1C#N
  A: 0	B: 2	C: -7	D: -2
smiles: COCc1cc(C)nc(N2CCN(Cc3ccccc3)CC2)c1C#N
  A: -2	B: -2	C: -1	D: 106*
